## Yeast mating assay 1: variants of the scFv Ab-14

The measurements come from Engelhart et al. 2022 (doi:10.1038/s41597-022-01779-4) through the FLAb antibody collection.

All variants were tested on one target, the spike HR2 peptide PDVDLGDISGINAS (SARS-CoV-2).

Ab-14 is the parent antibody, in scFv form: VH, then the linker GGGGSGGGGSGGGGS, then VL. The heavy chain is unchanged in all variants.
VH: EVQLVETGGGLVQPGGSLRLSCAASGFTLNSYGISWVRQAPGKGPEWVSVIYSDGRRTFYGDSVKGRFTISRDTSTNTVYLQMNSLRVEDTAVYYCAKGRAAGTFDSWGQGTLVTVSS
VL: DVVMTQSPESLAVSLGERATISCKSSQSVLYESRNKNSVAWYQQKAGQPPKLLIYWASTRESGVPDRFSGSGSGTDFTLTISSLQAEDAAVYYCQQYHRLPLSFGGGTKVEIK

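AAYL50 was designed without a model: most single CDR substitutions and a random sample of double and triple ones. The assay is AlphaSeq: two haploid yeast populations carry antibody and antigen on their surface. Binding brings cells together so that they mate, and sequencing counts the barcode pairs among the diploids. Scores were corrected for input abundance and mapped to Kd with protein pairs of known affinity run in the same pool. Each pool was mated in three replicate cultures.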

The parent's light chain CDRs are KSSQSVLYESRNKNSVA, WASTRES, QQYHRLPLS; each variant's own CDRs replace them letter for letter. Every variant below is changed at T59 of the VL (sequential numbering). The Kd shown is the geometric mean over detected replicates; a lower Kd is a better binder. A pair that was not seen in any replicate is written "nd"; this usually means weak binding, but a binder can also be missed. As a blank, each scFv also met three strains without target: over library AAYL50, 18% of these pairings were detected, typically at 15 µM and seldom below 970 nM. The control count says in how many pairings with the empty strains this scFv gave a signal.

CDR-L1	CDR-L2	CDR-L3	Kd	replicates with signal	empty controls
KSSQSVLYESSNKNSVA	WASYRES	EQYHRLPLS	16 nM	3/3	4/9
KSSQSVLYASRNKNSVA	WASKRSS	QQYHRLPLS	nd	0/3	0/9
KSSQSVLYESRNKNSEA	WASHRES	QQCHRLPLS	nd	0/3	1/9
KVSQSVLYESRNMNSVA	WASIRES	QQYHRLPLS	nd	0/3	0/9
KSSQSVLYESRPKCSVA	WASYRES	QQYHRLPLS	5.4 µM	1/3	1/9
NSSQSVLYECRNKNSVA	WASERES	QQYHRLPLS	49 µM	2/3	5/9
KSSQSVLYESRNKNSVA	WASFRWS	TQYHRLPLS	3.8 µM	3/3	1/9
KSSQSVLYESRNKNSVA	WASPRES	QQYHSLPLS	nd	0/3	1/9
KSSQSVLYESRHKNSVA	WASFRES	QQYHELPLS	170 nM	3/3	3/9
KSSQSVLYESRNKNSVA	WASLRES	QQYKRNPLS	nd	0/3	1/9
KSRQSVLPESRNKNSVA	WASCRES	QQYHRLPLS	22 nM	3/3	0/9
KSSQSVLYESRNKNSVA	WASIRRS	QQYHRSPLS	nd	0/3	0/9
YSSQSVLYESRNKNSVA	WASHRES	QQYHRLPLV	48 nM	3/3	1/9
KSSQSVLYESRNKNSVW	WASERES	QQYHRLPLN	nd	0/3	0/9
KSSASVEYESRNKNSVA	WASWRES	QQYHRLPLS	30 nM	3/3	0/9
ISSQSVLYESRNKNSVA	WASLRES	WQYHRLPLS	42 nM	3/3	1/9
KMSQSVLYESRNKNKVA	WASERES	QQYHRLPLS	450 nM	1/3	1/9
KSSQSVRYESRNKNSVA	WASQRES	QQYHRPPLS	nd	0/3	0/9
KSSQSVLYESCNKNSVA	WESCRES	QQYHRLPLS	110 nM	1/3	0/9
KSSQSVLYESRLKNSVA	WASVRES	QQYHRLPLS	4.7 nM	3/3	5/9
KSSQSVLSLSRNKNSVA	WASSRES	QQYHRLPLS	160 nM	3/3	0/9
KSSQSVLYESRNKNSVA	WASVRES	QQYHRLHLS	nd	0/3	1/9
KSSQSVLYESRNKNSVA	WASVRRS	QQAHRLPLS	17 nM	3/3	8/9
KSSQSVLYESRNKNSIA	WASCRES	QQYRRLPLS	120 nM	3/3	0/9
KSSQSVLYESRNKNSGM	WASHRES	QQYHRLPLS	nd	0/3	0/9
KSSQSVLYESRNKNSVI	WASWRES	QQYHRLPNS	nd	0/3	3/9
KSSQSVLYESRNDNQVA	WASNRES	QQYHRLPLS	16 nM	3/3	2/9
KQSQSVLYESREKNSVA	WASYRES	QQYHRLPLS	72 nM	3/3	0/9
KSSSSVLYESRNKNSVA	WASRRES	QQYHTLPLS	59 nM	3/3	1/9
KSSQSVLYESRNKNSVT	WASSHES	QQYHRLPLS	nd	0/3	0/9
KSSQSVLYNSRNKNSVA	WASGRES	QQYHRLPWS	nd	0/3	0/9
FSSQSVLYESRNLNSVA	WASQRES	QQYHRLPLS	nd	0/3	0/9
KSSQSVLYESRNKNEVA	WASGRES	QQDHRLPLS	52 µM	1/3	1/9
QSSQSVLYESRNKNSPA	WASSRES	QQYHRLPLS	nd	0/3	0/9
KSSQSVLYESRNKNSVA	WASERES	QQYGRLPLS	6.1 nM	3/3	4/9
KSSQSVLYESRNKNSMA	WASQRKS	QQYHRLPLS	4.1 µM	3/3	2/9
KSSQSILYESRNKNSVA	WASYLES	QQYHRLPLS	5.8 µM	3/3	1/9
KSSQSVLYESRNKNSVA	SASVRES	VQYHRLPLS	2.0 nM	3/3	1/9
KSKQSVLYESRNKNSVA	WASIRES	QQYHRLFLS	nd	0/3	1/9
KSSQSVLYESRNKNSVA	KANDRES	QQYHRLPLS	nd	0/3	1/9
KSSQHVLYESRNKNSVA	LASLRES	QQYHRLPLS	46 nM	3/3	5/9
KSSQSVLYESRNLNSVP	WASCRES	QQYHRLPLS	480 nM	3/3	8/9
KSSQSVLYESRNKNSVA	WASPRES	QQYHTTPLS	nd	0/3	4/9
KSSTSVLYESRNKNSVA	WASQRKS	QQYHRLPLS	560 nM	3/3	3/9
KSSQSVLYESRNKRSVA	WASNRVS	QQYHRLPLS	25 nM	3/3	0/9
KSSQSVLYEVRNKNSVA	WASYRES	GQYHRLPLS	2.3 µM	1/3	1/9
KSSQSVLYESRDKNSVA	WASDRIS	QQYHRLPLS	29 nM	3/3	3/9
QSSQSVLYESRNKNSVA	WASHRES	QQYPRLPLS	nd	0/3	0/9
KSSQSVLYESRNKNSVA	WASMRES	YQYHRLRLS	980 nM	1/3	0/9
KSSQSVLYESDNKNSVA	WASYRES	QQYHRLPLS	4.3 nM	3/3	0/9
KSTQSVLYESRNKNSVA	WASWRES	QQDHRLPLS	2.0 µM	2/3	2/9
KSSQSVLYESRNKNSVA	WASVRES	QQYHRLPLS	11 nM	3/3	3/9
KSSQSVLYTSRNKNSVA	WASPRES	QQYHRLPLS	nd	0/3	0/9
KSSQSVLYESRNKNSVA	WKSDRES	QWYHRLPLS	190 µM	1/3	1/9
KSSQSVLYESRNKNAVA	WASIRES	QQYIRLPLS	5.4 nM	3/3	2/9
HWSQSVLYESRNKNSVA	WASIRES	QQYHRLPLS	3.2 nM	3/3	3/9
KSSQSVLYESRNKNSVA	WASYRES	QQMHRLPLV	31 nM	3/3	0/9
KSSASVLYESCNKNSVA	WASKRES	QQYHRLPLS	47 nM	3/3	2/9
WSSQSVLYESANKNSVA	WASDRES	QQYHRLPLS	5.4 µM	3/3	7/9
KSSQSVLYESRNKESVA	WASYRES	QQYHRQPLS	nd	0/3	1/9
KSSQSVLLESRNKNCVA	WASARES	QQYHRLPLS	12 nM	3/3	0/9
KSSQSVLYESRNKNSVA	WIIARES	QQYHRLPLS	nd	0/3	3/9
KSSQSVLYESRNKNSVA	WASRRES	QRYHRLDLS	690 nM	3/3	1/9

Again, the first 10 entries without any signal:

| CDR-L1 | CDR-L2 | CDR-L3 | Kd | replicates with signal | empty controls |
|---|---|---|---|---|---|
| KSSQSVLYASRNKNSVA | WASKRSS | QQYHRLPLS | nd | 0/3 | 0/9 |
| KSSQSVLYESRNKNSEA | WASHRES | QQCHRLPLS | nd | 0/3 | 1/9 |
| KVSQSVLYESRNMNSVA | WASIRES | QQYHRLPLS | nd | 0/3 | 0/9 |
| KSSQSVLYESRNKNSVA | WASPRES | QQYHSLPLS | nd | 0/3 | 1/9 |
| KSSQSVLYESRNKNSVA | WASLRES | QQYKRNPLS | nd | 0/3 | 1/9 |
| KSSQSVLYESRNKNSVA | WASIRRS | QQYHRSPLS | nd | 0/3 | 0/9 |
| KSSQSVLYESRNKNSVW | WASERES | QQYHRLPLN | nd | 0/3 | 0/9 |
| KSSQSVRYESRNKNSVA | WASQRES | QQYHRPPLS | nd | 0/3 | 0/9 |
| KSSQSVLYESRNKNSVA | WASVRES | QQYHRLHLS | nd | 0/3 | 1/9 |
| KSSQSVLYESRNKNSGM | WASHRES | QQYHRLPLS | nd | 0/3 | 0/9 |